Measurements: EP4834897A1, “COMPOUNDS WITH TWO AZAHETEROCYCLES SUBSTITUTED ISOINDOLINONE SKELETON AND USES THEREOF” (dated 2026)
pIC50: −log10 of the molar value.

Sequences of proteins named here, by UniProt entry; tags and fusion partners are left off.
UniProt Q96SW2, whole entry: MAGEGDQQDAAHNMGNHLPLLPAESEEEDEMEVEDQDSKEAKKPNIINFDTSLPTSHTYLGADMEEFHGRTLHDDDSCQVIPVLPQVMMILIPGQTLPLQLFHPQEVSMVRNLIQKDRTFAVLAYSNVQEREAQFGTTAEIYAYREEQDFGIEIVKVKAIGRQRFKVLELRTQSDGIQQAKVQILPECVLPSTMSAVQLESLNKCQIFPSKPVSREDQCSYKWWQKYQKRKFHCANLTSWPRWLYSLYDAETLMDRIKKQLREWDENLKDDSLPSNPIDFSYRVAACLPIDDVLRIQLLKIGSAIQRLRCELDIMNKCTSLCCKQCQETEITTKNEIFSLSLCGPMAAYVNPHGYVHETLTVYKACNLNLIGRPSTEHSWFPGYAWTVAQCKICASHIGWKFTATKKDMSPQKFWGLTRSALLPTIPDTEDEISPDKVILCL
UniProt P48729, whole entry: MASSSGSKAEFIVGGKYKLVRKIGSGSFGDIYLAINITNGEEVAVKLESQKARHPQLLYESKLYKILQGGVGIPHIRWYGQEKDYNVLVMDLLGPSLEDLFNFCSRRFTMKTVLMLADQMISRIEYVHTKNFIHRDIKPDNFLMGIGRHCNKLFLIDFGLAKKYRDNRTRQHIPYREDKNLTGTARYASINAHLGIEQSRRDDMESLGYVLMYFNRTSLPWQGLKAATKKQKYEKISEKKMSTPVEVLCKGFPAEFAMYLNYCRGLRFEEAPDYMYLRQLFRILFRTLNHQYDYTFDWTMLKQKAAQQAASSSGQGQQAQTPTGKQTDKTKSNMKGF
UniProt P15170, whole entry: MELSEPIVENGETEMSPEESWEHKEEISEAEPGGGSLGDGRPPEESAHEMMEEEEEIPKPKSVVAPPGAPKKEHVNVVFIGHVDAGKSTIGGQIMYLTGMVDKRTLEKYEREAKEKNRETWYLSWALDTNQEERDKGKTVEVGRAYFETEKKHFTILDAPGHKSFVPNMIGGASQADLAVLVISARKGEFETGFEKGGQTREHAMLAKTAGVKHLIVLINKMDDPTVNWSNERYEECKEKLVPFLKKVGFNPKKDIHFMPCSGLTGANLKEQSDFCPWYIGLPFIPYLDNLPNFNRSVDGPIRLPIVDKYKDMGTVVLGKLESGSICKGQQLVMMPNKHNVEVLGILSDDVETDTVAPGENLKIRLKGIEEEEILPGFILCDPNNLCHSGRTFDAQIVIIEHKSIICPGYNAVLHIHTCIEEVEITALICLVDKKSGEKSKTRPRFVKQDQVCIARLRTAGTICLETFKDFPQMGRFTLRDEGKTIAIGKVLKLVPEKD
UniProt Q13422, whole entry: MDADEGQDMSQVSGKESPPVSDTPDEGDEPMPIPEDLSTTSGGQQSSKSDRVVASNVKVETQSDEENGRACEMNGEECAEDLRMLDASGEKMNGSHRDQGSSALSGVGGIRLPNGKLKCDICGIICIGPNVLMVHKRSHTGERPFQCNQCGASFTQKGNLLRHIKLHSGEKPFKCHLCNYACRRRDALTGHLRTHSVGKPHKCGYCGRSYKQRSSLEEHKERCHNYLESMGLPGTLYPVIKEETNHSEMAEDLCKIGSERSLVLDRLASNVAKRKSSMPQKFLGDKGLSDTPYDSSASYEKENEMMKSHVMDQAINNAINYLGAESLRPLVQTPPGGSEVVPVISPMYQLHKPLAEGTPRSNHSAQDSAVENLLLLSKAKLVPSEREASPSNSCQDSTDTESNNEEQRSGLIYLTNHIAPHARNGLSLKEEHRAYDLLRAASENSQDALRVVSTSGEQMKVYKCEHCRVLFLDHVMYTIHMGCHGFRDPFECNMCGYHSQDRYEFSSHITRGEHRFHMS
UniProt Q9UKS7, whole entry: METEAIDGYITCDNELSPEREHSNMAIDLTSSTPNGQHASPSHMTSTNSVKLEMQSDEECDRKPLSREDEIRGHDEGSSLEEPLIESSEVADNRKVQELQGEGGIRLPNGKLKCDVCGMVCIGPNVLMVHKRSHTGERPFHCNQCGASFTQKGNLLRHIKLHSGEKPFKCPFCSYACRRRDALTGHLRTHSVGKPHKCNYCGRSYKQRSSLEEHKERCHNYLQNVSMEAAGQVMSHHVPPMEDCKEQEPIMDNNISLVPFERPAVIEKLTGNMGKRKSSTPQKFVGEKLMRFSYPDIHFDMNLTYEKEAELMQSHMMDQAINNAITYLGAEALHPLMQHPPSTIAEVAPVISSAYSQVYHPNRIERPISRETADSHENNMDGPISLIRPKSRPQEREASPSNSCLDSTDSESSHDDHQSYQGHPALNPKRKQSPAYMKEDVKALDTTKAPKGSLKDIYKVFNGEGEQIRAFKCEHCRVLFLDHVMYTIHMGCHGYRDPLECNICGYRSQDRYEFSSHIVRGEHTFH
UniProt Q9UKT9, whole entry: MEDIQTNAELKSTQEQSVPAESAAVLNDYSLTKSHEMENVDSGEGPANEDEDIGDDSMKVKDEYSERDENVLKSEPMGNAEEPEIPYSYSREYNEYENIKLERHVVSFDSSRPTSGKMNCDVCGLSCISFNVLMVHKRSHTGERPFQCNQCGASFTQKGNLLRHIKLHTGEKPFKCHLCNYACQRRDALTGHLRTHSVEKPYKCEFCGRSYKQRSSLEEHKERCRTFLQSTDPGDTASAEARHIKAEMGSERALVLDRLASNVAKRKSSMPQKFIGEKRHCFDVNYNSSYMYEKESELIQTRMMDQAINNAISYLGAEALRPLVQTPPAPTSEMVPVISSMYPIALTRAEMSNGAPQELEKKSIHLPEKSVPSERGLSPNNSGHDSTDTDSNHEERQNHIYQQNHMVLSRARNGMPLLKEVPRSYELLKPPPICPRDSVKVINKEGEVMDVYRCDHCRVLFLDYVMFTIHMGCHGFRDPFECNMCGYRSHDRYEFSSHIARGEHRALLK
UniProt P30291, whole entry: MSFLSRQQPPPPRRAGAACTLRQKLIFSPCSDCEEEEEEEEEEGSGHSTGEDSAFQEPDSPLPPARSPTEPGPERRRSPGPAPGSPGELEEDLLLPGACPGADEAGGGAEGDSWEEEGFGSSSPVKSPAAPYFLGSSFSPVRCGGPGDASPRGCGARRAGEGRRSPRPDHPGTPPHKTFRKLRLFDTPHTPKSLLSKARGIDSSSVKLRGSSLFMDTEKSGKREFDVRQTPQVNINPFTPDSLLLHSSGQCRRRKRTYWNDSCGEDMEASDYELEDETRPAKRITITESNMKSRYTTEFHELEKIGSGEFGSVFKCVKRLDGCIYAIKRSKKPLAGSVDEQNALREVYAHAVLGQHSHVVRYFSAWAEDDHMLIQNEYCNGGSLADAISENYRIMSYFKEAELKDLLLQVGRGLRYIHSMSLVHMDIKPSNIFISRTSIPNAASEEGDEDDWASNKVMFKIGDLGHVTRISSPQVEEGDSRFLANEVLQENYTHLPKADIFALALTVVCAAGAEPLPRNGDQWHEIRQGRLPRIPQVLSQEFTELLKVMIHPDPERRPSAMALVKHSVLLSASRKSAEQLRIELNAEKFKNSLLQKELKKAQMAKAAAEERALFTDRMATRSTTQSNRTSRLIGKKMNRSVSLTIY
UniProt Q16531, whole entry partner: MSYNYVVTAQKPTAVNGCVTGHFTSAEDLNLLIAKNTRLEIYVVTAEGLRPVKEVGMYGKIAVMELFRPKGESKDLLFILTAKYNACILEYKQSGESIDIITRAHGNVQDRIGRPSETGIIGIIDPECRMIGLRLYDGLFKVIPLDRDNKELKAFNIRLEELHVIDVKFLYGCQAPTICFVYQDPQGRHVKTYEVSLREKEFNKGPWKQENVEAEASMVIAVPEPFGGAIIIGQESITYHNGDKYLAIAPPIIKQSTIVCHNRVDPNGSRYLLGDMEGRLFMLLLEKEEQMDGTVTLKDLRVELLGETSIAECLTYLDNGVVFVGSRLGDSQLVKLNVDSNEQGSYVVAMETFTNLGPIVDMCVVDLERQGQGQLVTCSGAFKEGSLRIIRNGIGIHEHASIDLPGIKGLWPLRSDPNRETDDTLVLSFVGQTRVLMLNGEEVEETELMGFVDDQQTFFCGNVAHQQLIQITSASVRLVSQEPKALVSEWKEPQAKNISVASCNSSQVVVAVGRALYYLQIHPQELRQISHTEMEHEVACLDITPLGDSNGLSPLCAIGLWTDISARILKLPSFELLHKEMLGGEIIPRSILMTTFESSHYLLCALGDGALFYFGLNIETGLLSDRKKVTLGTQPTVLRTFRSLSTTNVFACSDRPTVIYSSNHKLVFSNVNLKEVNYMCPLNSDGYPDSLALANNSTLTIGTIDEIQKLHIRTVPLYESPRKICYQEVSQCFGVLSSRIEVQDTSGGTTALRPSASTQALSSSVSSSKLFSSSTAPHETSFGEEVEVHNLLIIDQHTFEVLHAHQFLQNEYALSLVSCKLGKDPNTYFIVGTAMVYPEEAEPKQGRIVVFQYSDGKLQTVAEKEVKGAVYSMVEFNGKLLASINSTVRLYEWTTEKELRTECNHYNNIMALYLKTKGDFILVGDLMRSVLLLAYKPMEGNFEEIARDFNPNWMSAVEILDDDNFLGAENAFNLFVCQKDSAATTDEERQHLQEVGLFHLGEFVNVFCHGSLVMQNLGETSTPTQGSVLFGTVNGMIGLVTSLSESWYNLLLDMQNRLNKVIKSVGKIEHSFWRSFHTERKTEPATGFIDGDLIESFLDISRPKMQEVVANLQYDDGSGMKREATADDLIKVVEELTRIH

The molecules below were run against CRBN (Homo sapiens, UniProt Q96SW2) (assay: CRBN binding affinity by HTRF (CEREBLON BINDING kit)). Conditions: CRBN binding, HTRF, compound at 0.5 µM.

Row | Structure (SMILES) | Inhibition Rate at 0.5 µM (%)
1 | O=C1CCC(N2Cc3cc(C(=O)N4CCC(N5CC=C(c6cccc(Cl)c6Cl)CC5)C(F)(F)C4)cc(F)c3C2=O)C(=O)N1 (stereo not shown) | a4 (40% < a4 ≤ 53%)
2 | O=C1CCC(N2Cc3cc(CCCN4CCC(N5CCN(C(c6ccccc6)c6ccccc6)CC5)CC4)ccc3C2=O)C(=O)N1 (stereo not shown) | a5 (53% < a5 ≤ 60%)
3 | O=C1CCC(N2Cc3cc(C(=O)N4CCC(N5CCC(c6noc7cc(F)ccc67)CC5)C(F)(F)C4)ccc3C2=O)C(=O)N1 (stereo not shown) | a6 (60% < a6 ≤ 70%)
4 | O=C1CCC(N2Cc3cc(CN4CCC(N5CCC(c6noc7cc(F)ccc67)CC5)C(F)(F)C4)ccc3C2=S)C(=O)N1 (stereo not shown) | a5 (53% < a5 ≤ 60%)
5 | CC1(C)CCC(CN2CCN(C3CCN(C(=O)c4cccc5c4C(=O)N(C4CCC(=O)NC4=O)C5=O)CC3(F)F)CC2)=C(c2ccc(Cl)cc2)C1 (stereo not shown) | a2 (20% < a2 ≤ 30%)
6 | CC1(C)CCC(CN2CCN(C3CCN(CCCc4ccc5c(c4)CN(C4CCC(=O)NC4=O)C5=O)CC3(F)F)CC2)=C(c2ccc(Cl)cc2)C1 (stereo not shown) | a2 (20% < a2 ≤ 30%)

Same assay, conditions: CRBN binding, HTRF, compound at 2 µM

Row | Structure (SMILES) | Inhibition Rate at 2 µM (%)
7 | O=C1CCC(N2Cc3cc(C(=O)N4CCC(N5CC=C(c6cccc(Cl)c6Cl)CC5)C(F)(F)C4)cc(F)c3C2=O)C(=O)N1 (stereo not shown) | a7 (70% < a7 ≤80%)
8 | O=C1CCC(N2Cc3cc(CCCN4CCC(N5CCN(C(c6ccccc6)c6ccccc6)CC5)CC4)ccc3C2=O)C(=O)N1 (stereo not shown) | a8 (80% < a8 ≤100%)
9 | O=C1CCC(N2Cc3cc(C(=O)N4CCC(N5CCC(c6noc7cc(F)ccc67)CC5)C(F)(F)C4)ccc3C2=O)C(=O)N1 (stereo not shown) | a8 (80% < a8 ≤100%)
10 | O=C1CCC(N2Cc3cc(CN4CCC(N5CCC(c6noc7cc(F)ccc67)CC5)C(F)(F)C4)ccc3C2=S)C(=O)N1 (stereo not shown) | a8 (80% < a8 ≤100%)
11 | CC1(C)CCC(CN2CCN(C3CCN(C(=O)c4cccc5c4C(=O)N(C4CCC(=O)NC4=O)C5=O)CC3(F)F)CC2)=C(c2ccc(Cl)cc2)C1 (stereo not shown) | a5 (53% < a5 ≤ 60%)
12 | CC1(C)CCC(CN2CCN(C3CCN(CCCc4ccc5c(c4)CN(C4CCC(=O)NC4=O)C5=O)CC3(F)F)CC2)=C(c2ccc(Cl)cc2)C1 (stereo not shown) | a7 (70% < a7 ≤80%)

Same assay, conditions: read-out: HTRF IC50; human Cereblon WT GST-tagged protein; 3 hours at room temperature

Row | Structure (SMILES) | pIC50
13 | O=C1CCC(N2Cc3cc(CN4CCC(N5CCN(c6cccc(Cl)c6Cl)CC5)CC4)ccc3C2=O)C(=O)N1 (stereo not shown) | 5.82 to 6.00

These molecules were tested against CK1α (Homo sapiens, UniProt P48729+Q96SW2) (assay: Western blot assay of substrate protein degradation in hPBMCs). Conditions: 24 hours treatment, compounds at 50 nM and 500 nM (concentration behind the class not stated).

Row | Structure (SMILES) | substrate protein remaining % (CK1a)
14 | O=C1CCC(N2Cc3cc(CN4CCC(N5CCN(c6cccc(Cl)c6Cl)CC5)CC4)ccc3C2=O)C(=O)N1 (stereo not shown) | B (80%< substrate protein remaining %≤ 100%)
15 | O=C1CCC(N2Cc3cc(C(=O)N4CCC(N5CC=C(c6cccc(Cl)c6Cl)CC5)C(F)(F)C4)cc(F)c3C2=O)C(=O)N1 (stereo not shown) | A (0% ≤ substrate protein remaining % ≤ 80%)
16 | O=C1CCC(N2Cc3cc(CCCN4CCC(N5CCN(C(c6ccccc6)c6ccccc6)CC5)CC4)ccc3C2=O)C(=O)N1 (stereo not shown) | B (80%< substrate protein remaining %≤ 100%)
17 | O=C1CCC(N2Cc3cc(C(=O)N4CCC(N5CCC(c6noc7cc(F)ccc67)CC5)C(F)(F)C4)ccc3C2=O)C(=O)N1 (stereo not shown) | B (80%< substrate protein remaining %≤ 100%)
18 | O=C1CCC(N2Cc3cc(CN4CCC(N5CCC(c6noc7cc(F)ccc67)CC5)C(F)(F)C4)ccc3C2=S)C(=O)N1 (stereo not shown) | B (80%< substrate protein remaining %≤ 100%)
19 | CC1(C)CCC(CN2CCN(C3CCN(C(=O)c4cccc5c4C(=O)N(C4CCC(=O)NC4=O)C5=O)CC3(F)F)CC2)=C(c2ccc(Cl)cc2)C1 (stereo not shown) | B (80%< substrate protein remaining %≤ 100%)
20 | CC1(C)CCC(CN2CCN(C3CCN(CCCc4ccc5c(c4)CN(C4CCC(=O)NC4=O)C5=O)CC3(F)F)CC2)=C(c2ccc(Cl)cc2)C1 (stereo not shown) | B (80%< substrate protein remaining %≤ 100%)

What follows are molecules tested against GSPT1 (Homo sapiens, UniProt P15170+Q96SW2) in the same assay as above. Conditions: 24 hours treatment, compounds at 50 nM and 500 nM (concentration behind the class not stated).

Row | Structure (SMILES) | substrate protein remaining % (GSPT1)
21 | O=C1CCC(N2Cc3cc(CN4CCC(N5CCN(c6cccc(Cl)c6Cl)CC5)CC4)ccc3C2=O)C(=O)N1 (stereo not shown) | B (80%< substrate protein remaining %≤ 100%)
22 | O=C1CCC(N2Cc3cc(C(=O)N4CCC(N5CC=C(c6cccc(Cl)c6Cl)CC5)C(F)(F)C4)cc(F)c3C2=O)C(=O)N1 (stereo not shown) | A (0% ≤ substrate protein remaining % ≤ 80%)
23 | O=C1CCC(N2Cc3cc(CCCN4CCC(N5CCN(C(c6ccccc6)c6ccccc6)CC5)CC4)ccc3C2=O)C(=O)N1 (stereo not shown) | B (80%< substrate protein remaining %≤ 100%)
24 | O=C1CCC(N2Cc3cc(C(=O)N4CCC(N5CCC(c6noc7cc(F)ccc67)CC5)C(F)(F)C4)ccc3C2=O)C(=O)N1 (stereo not shown) | B (80%< substrate protein remaining %≤ 100%)
25 | O=C1CCC(N2Cc3cc(CN4CCC(N5CCC(c6noc7cc(F)ccc67)CC5)C(F)(F)C4)ccc3C2=S)C(=O)N1 (stereo not shown) | B (80%< substrate protein remaining %≤ 100%)
26 | CC1(C)CCC(CN2CCN(C3CCN(C(=O)c4cccc5c4C(=O)N(C4CCC(=O)NC4=O)C5=O)CC3(F)F)CC2)=C(c2ccc(Cl)cc2)C1 (stereo not shown) | B (80%< substrate protein remaining %≤ 100%)
27 | CC1(C)CCC(CN2CCN(C3CCN(CCCc4ccc5c(c4)CN(C4CCC(=O)NC4=O)C5=O)CC3(F)F)CC2)=C(c2ccc(Cl)cc2)C1 (stereo not shown) | A (0% ≤ substrate protein remaining % ≤ 80%)

These molecules were tested against IKZF1 (Homo sapiens, UniProt Q13422+Q96SW2) in the same assay as above. Conditions: 24 hours treatment, compounds at 50 nM and 500 nM (concentration behind the class not stated).

Row | Structure (SMILES) | substrate protein remaining % (IKZF 1)
28 | O=C1CCC(N2Cc3cc(CN4CCC(N5CCN(c6cccc(Cl)c6Cl)CC5)CC4)ccc3C2=O)C(=O)N1 (stereo not shown) | A (0% ≤ substrate protein remaining % ≤ 80%)
29 | O=C1CCC(N2Cc3cc(C(=O)N4CCC(N5CC=C(c6cccc(Cl)c6Cl)CC5)C(F)(F)C4)cc(F)c3C2=O)C(=O)N1 (stereo not shown) | A (0% ≤ substrate protein remaining % ≤ 80%)
30 | O=C1CCC(N2Cc3cc(CCCN4CCC(N5CCN(C(c6ccccc6)c6ccccc6)CC5)CC4)ccc3C2=O)C(=O)N1 (stereo not shown) | B (80%< substrate protein remaining %≤ 100%)
31 | O=C1CCC(N2Cc3cc(C(=O)N4CCC(N5CCC(c6noc7cc(F)ccc67)CC5)C(F)(F)C4)ccc3C2=O)C(=O)N1 (stereo not shown) | B (80%< substrate protein remaining %≤ 100%)
32 | O=C1CCC(N2Cc3cc(CN4CCC(N5CCC(c6noc7cc(F)ccc67)CC5)C(F)(F)C4)ccc3C2=S)C(=O)N1 (stereo not shown) | B (80%< substrate protein remaining %≤ 100%)
33 | CC1(C)CCC(CN2CCN(C3CCN(C(=O)c4cccc5c4C(=O)N(C4CCC(=O)NC4=O)C5=O)CC3(F)F)CC2)=C(c2ccc(Cl)cc2)C1 (stereo not shown) | B (80%< substrate protein remaining %≤ 100%)
34 | CC1(C)CCC(CN2CCN(C3CCN(CCCc4ccc5c(c4)CN(C4CCC(=O)NC4=O)C5=O)CC3(F)F)CC2)=C(c2ccc(Cl)cc2)C1 (stereo not shown) | B (80%< substrate protein remaining %≤ 100%)

The molecules below were run against IKZF2 (Homo sapiens, UniProt Q96SW2+Q9UKS7) in the same assay as above. Conditions: 24 hours treatment, compounds at 50 nM and 500 nM (concentration behind the class not stated).

Row | Structure (SMILES) | substrate protein remaining % (IKZF2)
35 | O=C1CCC(N2Cc3cc(CN4CCC(N5CCN(c6cccc(Cl)c6Cl)CC5)CC4)ccc3C2=O)C(=O)N1 (stereo not shown) | B (80%< substrate protein remaining %≤ 100%)
36 | O=C1CCC(N2Cc3cc(C(=O)N4CCC(N5CC=C(c6cccc(Cl)c6Cl)CC5)C(F)(F)C4)cc(F)c3C2=O)C(=O)N1 (stereo not shown) | A (0% ≤ substrate protein remaining % ≤ 80%)
37 | O=C1CCC(N2Cc3cc(CCCN4CCC(N5CCN(C(c6ccccc6)c6ccccc6)CC5)CC4)ccc3C2=O)C(=O)N1 (stereo not shown) | A (0% ≤ substrate protein remaining % ≤ 80%)
38 | O=C1CCC(N2Cc3cc(C(=O)N4CCC(N5CCC(c6noc7cc(F)ccc67)CC5)C(F)(F)C4)ccc3C2=O)C(=O)N1 (stereo not shown) | B (80%< substrate protein remaining %≤ 100%)
39 | O=C1CCC(N2Cc3cc(CN4CCC(N5CCC(c6noc7cc(F)ccc67)CC5)C(F)(F)C4)ccc3C2=S)C(=O)N1 (stereo not shown) | B (80%< substrate protein remaining %≤ 100%)
40 | CC1(C)CCC(CN2CCN(C3CCN(C(=O)c4cccc5c4C(=O)N(C4CCC(=O)NC4=O)C5=O)CC3(F)F)CC2)=C(c2ccc(Cl)cc2)C1 (stereo not shown) | B (80%< substrate protein remaining %≤ 100%)
41 | CC1(C)CCC(CN2CCN(C3CCN(CCCc4ccc5c(c4)CN(C4CCC(=O)NC4=O)C5=O)CC3(F)F)CC2)=C(c2ccc(Cl)cc2)C1 (stereo not shown) | A (0% ≤ substrate protein remaining % ≤ 80%)

Each molecule was assayed against IKZF3 (Homo sapiens, UniProt Q96SW2+Q9UKT9) in the same assay as above. Conditions: 24 hours treatment, compounds at 50 nM and 500 nM (concentration behind the class not stated).

Row | Structure (SMILES) | substrate protein remaining % (IKZF3)
42 | O=C1CCC(N2Cc3cc(CN4CCC(N5CCN(c6cccc(Cl)c6Cl)CC5)CC4)ccc3C2=O)C(=O)N1 (stereo not shown) | A (0% ≤ substrate protein remaining % ≤ 80%)
43 | O=C1CCC(N2Cc3cc(C(=O)N4CCC(N5CC=C(c6cccc(Cl)c6Cl)CC5)C(F)(F)C4)cc(F)c3C2=O)C(=O)N1 (stereo not shown) | A (0% ≤ substrate protein remaining % ≤ 80%)
44 | O=C1CCC(N2Cc3cc(CCCN4CCC(N5CCN(C(c6ccccc6)c6ccccc6)CC5)CC4)ccc3C2=O)C(=O)N1 (stereo not shown) | B (80%< substrate protein remaining %≤ 100%)
45 | O=C1CCC(N2Cc3cc(C(=O)N4CCC(N5CCC(c6noc7cc(F)ccc67)CC5)C(F)(F)C4)ccc3C2=O)C(=O)N1 (stereo not shown) | B (80%< substrate protein remaining %≤ 100%)
46 | O=C1CCC(N2Cc3cc(CN4CCC(N5CCC(c6noc7cc(F)ccc67)CC5)C(F)(F)C4)ccc3C2=S)C(=O)N1 (stereo not shown) | A (0% ≤ substrate protein remaining % ≤ 80%)
47 | CC1(C)CCC(CN2CCN(C3CCN(C(=O)c4cccc5c4C(=O)N(C4CCC(=O)NC4=O)C5=O)CC3(F)F)CC2)=C(c2ccc(Cl)cc2)C1 (stereo not shown) | A (0% ≤ substrate protein remaining % ≤ 80%)
48 | CC1(C)CCC(CN2CCN(C3CCN(CCCc4ccc5c(c4)CN(C4CCC(=O)NC4=O)C5=O)CC3(F)F)CC2)=C(c2ccc(Cl)cc2)C1 (stereo not shown) | B (80%< substrate protein remaining %≤ 100%)

These molecules were tested against WEE1 (Homo sapiens, UniProt P30291+Q96SW2) in the same assay as above. Conditions: 24 hours treatment, compounds at 50 nM and 500 nM (concentration behind the class not stated).

Row | Structure (SMILES) | substrate protein remaining % (WEE1)
49 | O=C1CCC(N2Cc3cc(CN4CCC(N5CCN(c6cccc(Cl)c6Cl)CC5)CC4)ccc3C2=O)C(=O)N1 (stereo not shown) | A (0% ≤ substrate protein remaining % ≤ 80%)
50 | O=C1CCC(N2Cc3cc(C(=O)N4CCC(N5CC=C(c6cccc(Cl)c6Cl)CC5)C(F)(F)C4)cc(F)c3C2=O)C(=O)N1 (stereo not shown) | A (0% ≤ substrate protein remaining % ≤ 80%)
51 | O=C1CCC(N2Cc3cc(CCCN4CCC(N5CCN(C(c6ccccc6)c6ccccc6)CC5)CC4)ccc3C2=O)C(=O)N1 (stereo not shown) | B (80%< substrate protein remaining %≤ 100%)
52 | O=C1CCC(N2Cc3cc(C(=O)N4CCC(N5CCC(c6noc7cc(F)ccc67)CC5)C(F)(F)C4)ccc3C2=O)C(=O)N1 (stereo not shown) | A (0% ≤ substrate protein remaining % ≤ 80%)
53 | O=C1CCC(N2Cc3cc(CN4CCC(N5CCC(c6noc7cc(F)ccc67)CC5)C(F)(F)C4)ccc3C2=S)C(=O)N1 (stereo not shown) | A (0% ≤ substrate protein remaining % ≤ 80%)
54 | CC1(C)CCC(CN2CCN(C3CCN(C(=O)c4cccc5c4C(=O)N(C4CCC(=O)NC4=O)C5=O)CC3(F)F)CC2)=C(c2ccc(Cl)cc2)C1 (stereo not shown) | B (80%< substrate protein remaining %≤ 100%)
55 | CC1(C)CCC(CN2CCN(C3CCN(CCCc4ccc5c(c4)CN(C4CCC(=O)NC4=O)C5=O)CC3(F)F)CC2)=C(c2ccc(Cl)cc2)C1 (stereo not shown) | B (80%< substrate protein remaining %≤ 100%)
